# Measurements from patent publication US20230203058A1, “MACROCYCLIC DIAMINE DERIVATIVES AS ENT INHIBITORS FOR THE TREATMENT OF CANCERS, AND COMBINATION THEREOF WITH ADENOSINE RECEPTOR ANTAGONISTS” (ITEOS BELGIUM SA, priority 2020, published 2023).
# The chains behind the UniProt entries cited, without tags or fusion partners.
# UniProt Q12809, whole entry: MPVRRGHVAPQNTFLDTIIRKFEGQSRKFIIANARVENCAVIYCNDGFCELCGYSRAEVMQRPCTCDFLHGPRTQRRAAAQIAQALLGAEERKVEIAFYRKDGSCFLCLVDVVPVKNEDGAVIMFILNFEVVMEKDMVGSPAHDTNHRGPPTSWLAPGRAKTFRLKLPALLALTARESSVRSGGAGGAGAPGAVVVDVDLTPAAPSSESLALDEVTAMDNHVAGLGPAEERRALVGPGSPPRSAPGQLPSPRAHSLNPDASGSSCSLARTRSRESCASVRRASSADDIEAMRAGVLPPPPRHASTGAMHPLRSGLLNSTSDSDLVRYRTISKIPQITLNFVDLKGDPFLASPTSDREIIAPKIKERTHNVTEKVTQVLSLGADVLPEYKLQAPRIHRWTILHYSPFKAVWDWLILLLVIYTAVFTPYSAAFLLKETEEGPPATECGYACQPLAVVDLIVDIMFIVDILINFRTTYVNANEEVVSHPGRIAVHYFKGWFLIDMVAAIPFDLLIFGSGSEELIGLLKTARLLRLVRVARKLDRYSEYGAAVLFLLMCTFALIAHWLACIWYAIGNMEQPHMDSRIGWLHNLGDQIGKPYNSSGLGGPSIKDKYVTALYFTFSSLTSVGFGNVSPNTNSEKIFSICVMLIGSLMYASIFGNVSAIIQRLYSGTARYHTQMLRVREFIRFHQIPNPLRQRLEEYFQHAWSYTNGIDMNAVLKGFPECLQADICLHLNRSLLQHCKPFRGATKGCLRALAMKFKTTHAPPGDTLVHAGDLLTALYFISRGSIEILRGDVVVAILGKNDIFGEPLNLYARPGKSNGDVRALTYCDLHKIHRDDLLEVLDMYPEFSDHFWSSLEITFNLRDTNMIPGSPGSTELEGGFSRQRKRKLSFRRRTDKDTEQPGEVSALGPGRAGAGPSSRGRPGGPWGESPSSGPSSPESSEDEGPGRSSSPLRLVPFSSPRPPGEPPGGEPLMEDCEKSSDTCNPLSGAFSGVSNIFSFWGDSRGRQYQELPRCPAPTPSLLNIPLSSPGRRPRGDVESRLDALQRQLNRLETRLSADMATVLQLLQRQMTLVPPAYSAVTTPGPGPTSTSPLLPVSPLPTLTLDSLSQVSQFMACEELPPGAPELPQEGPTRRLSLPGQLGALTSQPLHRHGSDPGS
# UniProt Q99808, whole entry: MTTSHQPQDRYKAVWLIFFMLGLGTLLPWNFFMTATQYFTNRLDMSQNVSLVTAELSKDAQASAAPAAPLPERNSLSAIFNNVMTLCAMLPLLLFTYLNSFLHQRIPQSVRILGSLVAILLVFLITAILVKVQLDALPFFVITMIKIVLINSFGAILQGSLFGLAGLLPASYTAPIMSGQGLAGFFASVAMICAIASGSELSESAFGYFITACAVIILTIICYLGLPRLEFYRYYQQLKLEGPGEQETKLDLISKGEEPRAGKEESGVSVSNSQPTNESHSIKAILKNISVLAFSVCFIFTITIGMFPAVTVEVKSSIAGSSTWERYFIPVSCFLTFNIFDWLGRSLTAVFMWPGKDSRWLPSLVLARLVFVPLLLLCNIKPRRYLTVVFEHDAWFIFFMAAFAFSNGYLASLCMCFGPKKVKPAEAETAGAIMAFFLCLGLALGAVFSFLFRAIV
# Where two headings read alike, the source gives them in different places.
# Assays:
# hERG ion channel = hERG ion channel (Homo sapiens, UniProt Q12809)
# [1] = test system: stimulated primary human T cells; assay: T cell proliferation assay (rescue of proliferation in presence of ATP, CFSE dilution); details: 100 uM ATP
# Protocol: The aim of this study was to determine the potency of equilibrative nucleoside transporter 1 (ENT1) inhibitors to rescue proliferation by stimulated primary human T cells incubated in the presence of 100 uM Adenosine triphosphate (ATP), in baseline conditions (condition A) or in the presence of various proteins known to bind small molecules (condition B). Condition A: X-VIVO15 Condition B: X-VIVO15, 2% Human Serum Albumine (HSA) and 0,1% α-1-Acid Glycoprotein (AAG)
# Cryopreserved purified human CD3+ T cells were thawed and washed twice with RPMI1640 medium, UltraGlutamine containing 10% hiFBS.
# Cells were suspended in PBS containing 10% hiFBS. Cells were stained with CFSE by adding 2 µM solution in PBS, to get a final 1 µM CFSE solution. Cells were incubated while rotating for 5 minutes. Reaction was stopped by adding PBS with 10% FBS and cells were centrifuged for 5 minutes at 1500 rpm.
# Cells were resuspended at 1.6 ×10^6 cells/mL, either in X-VIVO15 medium or in 4% Human Serum Albumin and 0,2% α-1-Acid Glycoprotein. 50 µL of cell suspension (8×10^4 T cells) was added to wells of sterile round-bottom 96-well plates. […] After 72 or 96 hours, proliferation was measured determined by CFSE dilution via flow cytometry.
# human ENT1 [2] = target: T1, human ENT1 (Homo sapiens, UniProt Q99808); assay: Uridine transport inhibition assay (3H-uridine uptake in MDCKII-ENT1-LV cells); format: cell-based; details: read-out: Uridine transport inhibition assay IC50, uridine 1 µM, 1 min at 25° C.
# Source text: The aim of this study was to determine the potency of equilibrative nucleoside transporter 1 (ENT1) inhibitors by measuring ENT1-mediated transport is the cellular uptake assay. The human ENT1 transporter can be stably expressed in Madin-Darby Canine Kidney II (MDCKII) cells via transduction. Uridine is efficiently transported by ENT1 and is used as probe in the assay as 3 H-uridine. The interaction is detected as the modulation of the initial rate of 3 H-uridine transport by human ENT1 into MDCKII-ENT1-LV cells stably expressing ENT1 uptake transporter.
# human ENT1 [3] = target: T1, human ENT1; assay: ENT1 binding assay (competition with Sahenta-DY647 on JAR cells); details: read-out: Binding Assay IC50, competition with Sahenta-DY647 100 nM, 4° C.
# Protocol: The present assay aims at showing that the compounds of the present invention can bind to human ENT1. The principle of the assay is a competition between the compounds of this invention and Sahenta-DY647, an ENT1 inhibitor that emits fluorescence (Ex = 630 nm, Em = 670 nm). By measuring the fluorescence at the end of the assay we could assess the binding potency of the compounds of the present invention.
# JAR cells expressing ENT1 were bought from ATCC® (HTB-144TM). Cells were cultured in RPMI 1640 medium (LONZA®, #BE12-702F/U1) supplemented with 10% FBS (GIBCO®, #10270-106), 10 mM Hepes (LONZA®, #BE17-737E), 1 mM Sodium Pyruvate (LONZA®, #BE13-115E) and 2% Penicillin/Streptomycin (LONZA®, #DE17-603E) at 37° C. and 5% CO2. The assay was conducted on the following buffer: HBSS (LONZA®, #LO-527F) supplemented with 10 mM Hepes (LONZA®, #BE17-737E) and 0.1% BSA (Miltenyi®, #130-091-376) on the day of the assay. JAR cells were resuspended in the described buffer. Compounds of the present invention and Sahenta-DY647 were diluted 200X in the described buffer.
# A total of 50000 cells were pre-incubated for 30 min at 4° C. with the compounds of the present invention before adding the corresponded IC90 of Sahenta-DY647 (100 nM) and incubate once more for 30 min at 4° C. […]
structure (smiles),measurement,setting,value
COc1cc(C(=O)OC2CCCOc3cc(cc(OC)c3OC)C(=O)OCCCN3CCCN(CC2)CC3)cc(OC)c1OC (racemic),IC50,hERG ion channel,800 nM
same,IC50,"[1]; read-out: (2) T Cell proliferation (Condition B) IC50, Condition B: X-VIVO15, 2% HSA and 0,1% AAG",< 1 nM
same,IC50,"[1]; read-out: T Cell proliferation (Condition A) IC50, Condition A: X-VIVO15",< 0.1 nM
same,IC50,human ENT1 [2],1 to 20 nM
same,IC50,human ENT1 [3],1 to 20 nM
